Laboratory results taken from patent US20060057069A1, “Detection of protein expression in vivo using fluorescent puromycin conjugates” (CALIFORNIA INSTITUTE OF TECHNOLOGY, priority 2004, published 2006).

Legend:
[1] = tested on: cultured hippocampal neurons; experiment: F2P (fluorescein-dC-puromycin) reporter of endogenous protein synthesis in cultured hippocampal neurons; assay type: cell-based, rat; conditions: SKF in the presence of F2P, 15 minutes; n=14
Procedure: Dissociated hippocampal neurons were prepared and maintained as previously described. Briefly, hippocampi from postnatal day 2 Sprague-Dawley rat pups were enzymatically and mechanically dissociated and plated into poly-lysine coated glass-bottom petri dishes (Mattek). Neurons were maintained for 14-21 days at 37° C. in growth medium (Neurobasal A supplemented with B27 and Glutamax-1, Invitrogen).
All images were acquired with an Olympus IX-70 confocal laser scanning microscope running Fluoview software (Olympus America, Inc). GFP, Alexa 488, and F2P were excited with the 488 nm line of an argon ion laser, and emitted light was collected between 510 and 550 nm. Alexa 568 was excited with the 568 nm line of a krypton ion laser, and emitted light was collected above 600 nm. In experiments where two channels were acquired simultaneously, settings were chosen to ensure no signal bleed-through between channels. For between-dish comparisons on a given day, all images were acquired at the same settings, without knowledge of the experimental condition during image acquisition. […] To facilitate the analysis of fluorescence signal as a function of distance from the soma, dendrites were linearized and extracted from the full-frame image using a modified version of the Straighten plugin for ImageJ. […]

dopamine D1/D5 receptor = experiment: GFP protein synthesis reporter imaging in cultured hippocampal neurons; assay type: cell-based, rat

protein synthesis (GFP reporter signal) relative to control neurons (dopamine D1/D5 receptor; SKF 100 μM for 15 min bath application, soma and dendrites): significantly enhanced protein synthesis
Compound: Oc1cc2c(cc1O)C(c1ccccc1)CNCC2 (stereo not drawn) [SKF-38393]
mean percent increase in F2P signal relative to control [1]: 91.3 ± 11.2%
time-lapse GFP signal in dendrites (dopamine D1/D5 receptor; brief (15 min) exposure, 60 minute imaging): increased the GFP signal in dendrites within 60 minutes
